Assay results reported in patent US12233115B2, “Long-acting parathyroid hormone” (Extend Biosciences, Inc., priority 2022, dated 2025).

Test system: Thyroparathyroidectomized (TPTx) rats
Experiment: 28-day pharmacodynamic study in thyroparathyroidectomized (TPTx) rats
Assay type: in vivo, rat
Details: 10 nmol/kg SC daily, Days 12, 27, relative to TPTx/vehicle
From the text: 28-day Pharmacodynamic Study of EXT607 in TPTx Rats. Thyroparathyroidectomized (TPTx) rats are a model for hypoparathyroidism. To produce TPTx rats, the thyroid and parathyroid glands were surgically resected and the rats were given L-thyroxine to compensate for the loss of their thyroid. Due to the absence of PTH, TPTx rats had lower levels of serum calcium and higher levels of serum phosphate.
Each group consisted of 10 female rats split into two cohorts of 5 animals for blood sampling purposes. On days 1, 12, and 27, blood (˜0.2 ml) was collected into serum separation tubes at t=0 (pre-dose), 2, 6, 10, and 24 h. The samples were processed into serum by standard methods and analyzed for serum total calcium and phosphate.
Calcium levels at 3 and 10 nmol/kg (20 and 60 μg/kg) were at or just below the normal range of calcium levels for healthy animals. […] For each timepoint, the percent increase in serum calcium relative to the TPTx vehicle control group (Group 2) was determined and daily averages were calculated (Table 9B). Over the three days sampled (Days 1, 12, and 27), […] increased serum calcium an average of 17, 28, and 37% at 1, 3, and 10 nmol/kg, respectively.
At each timepoint, the percent decrease in serum phosphate relative to the TPTx vehicle control group (Group 2) was determined, and daily averages were calculated (Table 9C).

CC[C@H](C)[C@H](NC(=O)[C@H](CCC(=O)O)NC(=O)[C@H](CO)NC(=O)[C@@H](NC(=O)[C@@H](N)CO)C(C)C)C(=O)N[C@@H](CCC(N)=O)C(=O)N[C@@H](CC(C)C)C(=O)N[C@@H](CCSC)C(=O)N[C@@H](Cc1c[nH]cn1)C(=O)N[C@@H](CC(N)=O)C(=O)N[C@@H](CC(C)C)C(=O)NCC(=O)N[C@@H](CCCCN)C(=O)N[C@@H](Cc1c[nH]cn1)C(=O)N[C@@H](CC(C)C)C(=O)N[C@@H](CC(N)=O)C(=O)N[C@@H](CO)C(=O)N[C@@H](CCSC)C(=O)N[C@@H](CCC(=O)O)C(=O)N[C@@H](CCCNC(=N)N)C(=O)N[C@H](C(=O)N[C@@H](CCC(=O)O)C(=O)N[C@@H](Cc1c[nH]c2ccccc12)C(=O)N[C@@H](CC(C)C)C(=O)N[C@@H](CCCNC(=N)N)C(=O)N[C@@H](CCCCN)C(=O)N[C@@H](CCCCN)C(=O)N[C@@H](CC(C)C)C(=O)N[C@@H](CCC(N)=O)C(=O)N[C@@H](CC(=O)O)C(=O)N[C@H](C(=O)N[C@@H](Cc1c[nH]cn1)C(=O)N[C@@H](CC(N)=O)C(=O)N[C@@H](Cc1ccccc1)C(=O)O)C(C)C)C(C)C [PTH(1-34)]
% Decrease in Serum Phosphate, Combined: 11%
